The entries are a selection whose mix differs from that of the whole data set. Some results for these compounds are left out of this collection, so the calls shown say nothing about other tests. Calls of active or inactive are those of the source.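 How the source made its calls: active means inhibition above the mean inhibition of all tested compounds plus 3 SD (cut at about 17% in these data); inactive means the rest.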
Each molecule was assayed against Troponin I, cardiac muscle (Homo sapiens) + Troponin T, cardiac muscle (Homo sapiens) + Troponin C, slow skeletal and cardiac muscles (Homo sapiens) (UniProt P19429+P45379+P63316) (assay: cardiac RTF calcium sensitivity inhibitors, primary screen, biochemical, IANBD-TnC fluorescence, EC70 calcium (AID 493244)). Conditions: IANBD-labeled cardiac RTF, Ca2+ fluorescence; at 7.15 µM; stronger effect = higher value.

Row | Structure (SMILES) | inhibition
1 | O=C(OC1CN2CCC1CC2)C(CO)(c1ccccc1)c1ccccc1 (stereo not given) | inactive: -12.2%
2 | CN(C)c1cccc(C(=O)NCC2(N(C)C)CCCCC2)c1 | inactive: -5.61%
3 | CC(C)Oc1ccc(C(=O)NCC2(N(C)C)CCCCC2)cc1 | inactive: -0.72%
4 | O=C(OCCN1CCCC1)C(O)(c1ccccc1)c1ccccc1 | inactive: -8.31%
5 | COc1ccc(Br)c(C(=O)NCC2(N3CCCCC3)CCCCC2)c1 | inactive: 3.99%
6 | COc1cc(C(=O)NCC2(N(C)C)CCCCC2)c([N+](=O)[O-])cc1OC | inactive: -11.2%
7 | CN(C)C1(CNC(=O)c2ccc(Br)cc2)CCCCC1 | inactive: 1.56%
8 | O=C(NCC1(N2CCCCC2)CCCCC1)c1cccc(Cl)c1 | inactive: 2.73%
9 | COc1cccc(C(=O)NCC2(N3CCCCC3)CCCCC2)c1 | inactive: -7.83%
10 | COc1ccc(Cl)cc1C(=O)NCC1(N(C)C)CCCCC1 | inactive: -2%
11 | Cc1ccccc1C(=O)NCC1(N2CCCCC2)CCCCC1 | inactive: 5.19%
12 | CN(C)c1ccc(C(=O)NCC2(N(C)C)CCCCC2)cc1 | inactive: 2.45%
13 | CN(C)C1CCCC1OC(=O)C(O)(c1ccccc1)c1ccccc1 (stereo not given) | inactive: 5.85%
14 | CCN1CCCC(OC(=O)C2(O)c3ccccc3C=Cc3ccccc32)C1 (stereo not given) | inactive: -4.99%
15 | Cc1cc(C(=O)NCC2(N3CCCCC3)CCCCC2)ccc1[N+](=O)[O-] | inactive: -9.05%
16 | O=C(NCC1(N2CCCCC2)CCCCC1)c1cccc(Br)c1 | inactive: -19%
17 | COc1ccc(C(=O)NCC2(N(C)C)CCCCC2)cc1 | inactive: -13.2%
18 | C=CCN1CCN(CCOC(=O)C(O)(c2ccccc2)c2ccccc2)CC1 | inactive: -12.4%
19 | O=C(NCC1(N2CCCCC2)CCCCC1)c1cc(F)c(F)cc1Cl | inactive: -12.6%
20 | CN1[C@@H]2CC[C@H]1CC(OC(=O)C(O)(c1ccccc1)c1ccccc1)C2 (stereo not given in full) | inactive: 0.72%
21 | O=C(NCC1(N2CCCCC2)CCCCC1)c1cc([N+](=O)[O-])ccc1Cl | inactive: 5.71%
22 | Cc1ccc(C(=O)NCC2(N3CCCCC3)CCCCC2)cc1 | inactive: -3.98%
23 | CC(C)N1C(=O)CC2(CCN(CCOC(=O)C(O)(c3ccccc3)c3ccccc3)CC2)C1=O | inactive: -5.78%
24 | CCN(CC)CC(C)C(C)OC(=O)C(O)(c1ccccc1)c1ccccc1 (stereo not given) | inactive: -3.56%
25 | COc1cc(SC)ccc1C(=O)NCC1(N(C)C)CCCCC1 | inactive: -2.24%

From PubChem BioAssay AID493244 (The Scripps Research Institute Molecular Screening Center, 2011)
